Earlier results on 1 compound are cited in patent publication US20130209522A1, “Drug Release from a Polymer-Controlled Local Antibiotic Delivery System Using a Degradable Bone Graft” (UNIVERSITY OF UTAH RESEARCH FOUNDATION, priority 2012, published 2013).

The conditions of this data set: Table 3, for reference; cited from earlier work.

In the case of `O=C(O)c1cn(C2CC2)c2cc(N3CCNCC3)c(F)cc2c1=O` [Ciprofloxacin], the “pH induced in the surrounding” value is recorded as “Amphoteric”.
